IC50 data for one molecule are collected here from BindingDB's records for 26827140.

Chains of the proteins cited; added tags and fusions are not shown. Residues count along the entry.
UniProt Q29550, 19-566 limits assumed: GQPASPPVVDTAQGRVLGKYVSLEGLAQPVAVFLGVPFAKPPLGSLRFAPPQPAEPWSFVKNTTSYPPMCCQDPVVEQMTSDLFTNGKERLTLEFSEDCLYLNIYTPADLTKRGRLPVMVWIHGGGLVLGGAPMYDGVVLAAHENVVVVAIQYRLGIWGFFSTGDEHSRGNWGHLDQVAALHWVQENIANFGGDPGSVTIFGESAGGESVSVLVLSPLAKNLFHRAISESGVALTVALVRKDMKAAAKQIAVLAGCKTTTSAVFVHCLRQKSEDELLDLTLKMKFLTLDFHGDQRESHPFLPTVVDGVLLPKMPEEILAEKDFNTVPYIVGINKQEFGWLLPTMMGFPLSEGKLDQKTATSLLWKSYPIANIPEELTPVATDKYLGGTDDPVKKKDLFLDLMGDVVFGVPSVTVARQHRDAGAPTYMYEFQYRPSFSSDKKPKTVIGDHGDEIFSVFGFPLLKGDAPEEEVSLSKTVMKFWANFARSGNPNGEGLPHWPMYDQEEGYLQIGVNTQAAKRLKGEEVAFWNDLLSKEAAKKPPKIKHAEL

This assay concerns the target Liver carboxylesterase (Sus scrofa, UniProt Q29550). The assay can be described thus: Inhibition of porcine liver carboxylesterase using 4-nitrophenol acetate as substrate by spectrophotometric analysis.

For the molecule `ICC1CN=C(Nc2ccccn2)S1` (stereo unspecified), the IC50 stood at 610 µM.

In general, IC50 refers to the concentration at which inhibition is half-maximal.
